Amino acid sequences for entries named in this document (tags omitted).
UniProt O60260, whole entry, chain 1 of 2: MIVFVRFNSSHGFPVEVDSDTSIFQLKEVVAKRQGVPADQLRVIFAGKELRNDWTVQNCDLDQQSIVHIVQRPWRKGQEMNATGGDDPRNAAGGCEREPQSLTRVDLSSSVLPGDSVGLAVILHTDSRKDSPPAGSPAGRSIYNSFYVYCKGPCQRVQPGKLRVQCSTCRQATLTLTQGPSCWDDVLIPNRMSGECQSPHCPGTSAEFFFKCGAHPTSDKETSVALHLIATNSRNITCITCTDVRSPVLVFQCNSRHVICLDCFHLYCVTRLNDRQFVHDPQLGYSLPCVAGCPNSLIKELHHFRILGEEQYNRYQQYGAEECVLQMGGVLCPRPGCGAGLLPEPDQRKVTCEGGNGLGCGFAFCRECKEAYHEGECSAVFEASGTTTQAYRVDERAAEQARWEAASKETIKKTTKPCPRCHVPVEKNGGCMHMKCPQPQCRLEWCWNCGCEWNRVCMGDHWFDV

In PMC4609183:

Biological target: phosphoparkin/phosphoubiquitin complex (UniProt O60260)
Test: ITC; phosphoparkin (35 μM) complexed with phosphoubiquitin titrated with UbcH7 or UbcH7∼Ub; 25°C; single-site model

Kd: 19 µM
Substance: UbcH7 (from UniProt P68036 1-154) (enzyme)
